An excerpt weighted towards active compounds, which were near 1.2% of everything screened.
Rce1 inh – inhibitors of yeast Ras-converting enzyme; Q03530; yeast membranes, quenched prenylated peptide cleavage fluorescence; calls only; hit rate 0.27% among 290,000;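 active means fall in fluorescence gain of 50% or more versus controls, with final raw signal at or below 3038400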;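 further: plate controls were neutral control wells for no effect and wells lacking membranes for full effect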
Tb MetRS inh – blocks T. brucei methionyl-tRNA synthetase activity. purified T. brucei MetRS, ATP depletion, Kinase-Glo luminescence. inhibition, % at 11.9 µM. hit rate 0.4% among 360,000. AID 624268;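 active means inhibition above a per-plate cutoff of the control wells' mean inhibition plus 3 SD, cut at about 5.5% in these data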;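 further: 0% = DMSO wells median and 100% = median of wells with control inhibitor compound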
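technique = Kinase-Glo luminescence, ATP depletion format | system = purified MetRS (methionyl-tRNA synthetase) enzyme from Trypanosoma brucei | timing = 15 min preincubation, 2 h reaction, all 25 °C | evaluation = percent inhibition versus plate control medians | dosing = single dose, 11.9 µM final nominal, 0.9% final DMSO | also added = substrates ATP, L-methionine and bulk Escherichia coli tRNA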
DSG3 Ab inh – blocks pemphigus antibody binding to human desmoglein-3. DSG3-coupled beads, scFv-anti-DSG3-GFP binding, flow cytometry; stronger effect = lower value. binding (percent of control), % at 10 µM. hit rate 0.48% among 310,000. AID 588358;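 active means binding more than 3 SD below its plate's average and above zero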
Arrestin-AP2 inh – human beta-arrestin and AP2 interaction inhibition. AID 504490. hit rate 0.31% among 340,000. FITC-arrestin peptide / GST-AP2 beads, flow cytometry; AP2 beta2 appendage carries R879A mutation. inhibition, % at 10 µM;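 active means inhibition above a set limit, near 3 SD of compounds lacking own fluorescence, cut at about 54% in these data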;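 further: plate controls were DMSO wells for no effect and 5 µM unlabelled arrestin peptide for full effect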
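System: GST-tagged AP2 beta2-adaptin appendage (R879A) on 4 µm glutathione beads / Reagent: FITC-arrestin peptide, 50 nM / Detection: HyperCyt-sampled flow cytometry, FL1 channel, ex 488/em 535 nm / Timing: 12 min plus 1 h, RT / Buffer or medium: PBS plus Tween 20 (0.05%) and BSA (0.1%)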
Yeast UUG start – yeast start codon fidelity modulation | S. cerevisiae UUG-firefly luciferase reporter, luminescence/redox ratio | activity score, % at 18.7 µM | hit rate 0.13% among 350,000 | AID 602363;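 active means replicate mean at a twofold rise or more, about +100% in these data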;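 further: firefly luciferase made from a UUG start codon reports start codon fidelity; reporter light over untreated wells divided by growth signal over untreated wells; some hits fall short of that in this replicate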
Starred values were filed as active, the others as inactive; i = inactive; · = no result; + = active, no number.

entry	Rce1 inh	Tb MetRS inh	canonical_smiles	DSG3 Ab inh	Arrestin-AP2 inh	Yeast UUG start
1	·	1	O=C(Nc1ccc(F)cc1)Nc1ccc(S(=O)(=O)N2CCCC2)cc1	107	13	-1
2	i	0	Cn1cnnc1SCc1cccc(Br)c1	41*	0	-1
3	·	0	COc1ccc(NC(=O)c2ccc(NC(=O)CN3CCN(c4ccccc4)CC3)cc2)cc1	5.2*	-1	-15
4	i	-1	COc1ccc(NC(=O)c2ccc(CN3CCN(c4ccccc4)CC3)cc2)cc1	·	-4	4
5	i	-1	COc1cccc(C(=O)Nc2ccccc2)c1	102	3	·
6	i	-1	CCc1ccc(OCC(=O)Nc2ccc(N3CCN(C(=O)c4ccccc4)CC3)cc2)cc1	95*	20	0
7	+	-1	CCN1CCN(c2ccc(NC(=O)c3cccc(OCc4ccccc4)c3)cc2)CC1	·	-6	-10
8	i	0	Cc1cccc(OCC(=O)Nc2ccc(N3CCN(C(=O)c4ccccc4)CC3)cc2)c1C	·	-7	-11
9	i	-1	COc1cccc(C(=O)Nc2ccc(NC(=O)Cc3ccccc3)cc2)c1	92*	-3	10
10	·	·	CNC[C@H]1Oc2ccc(NC(=O)NC3CCCCC3)cc2CC(=O)N([C@@H](C)CO)C[C@H]1C	·	·	16
11	i	-1	COc1ccc(C2(c3ccc(OC)cc3)NC(=O)N(CC(=O)Nc3ccc(N4CCOCC4)cc3)C2=O)cc1	3.0*	16	·
12	·	0	O=C(CN1C(=O)NC(c2ccccc2)(c2ccccc2)C1=O)Nc1ccc(N2CCOCC2)cc1	124	3	5
13	·	·	CC(C)CC#Cc1ccc2c(c1)O[C@H](CN(C)C(=O)Nc1ccccc1)[C@H](C)CN([C@H](C)CO)S2(=O)=O	·	·	6
14	·	·	C[C@H](CO)N1C[C@H](C)[C@@H](CN(C)Cc2ccc(C(=O)O)cc2)OCc2ccccc2-c2c(n(C)c3ccccc23)C1=O	·	·	15
15	+	1	COc1cccc(C2CC(=O)C3=C(C2)Nc2ccccc2N(C(=O)CCC(=O)O)C3c2ccc(F)cc2)c1 (stereo not given)	100	9	1
16	i	-1	COc1ccc(C2C3=C(CC(c4ccco4)CC3=O)Nc3ccccc3N2C(C)=O)cc1 (stereo not given)	106	-1	-5
17	·	·	CCCC#Cc1cnc2c(c1)C(=O)N([C@@H](C)CO)C[C@@H](C)[C@H](CN(C)C(=O)c1ccc(F)cc1)O2	·	·	23
18	i	0	S=c1[nH]nc(-c2ccccn2)n1/N=C/c1ccc(Br)s1	65*	9	·
19	i	2	Cc1ccc2[nH]c(C(=O)N/N=C/c3ccccc3C(=O)O)c(-c3ccccc3)c2c1	100	-14	3
20	+	-1	COc1ccc(/C=N/NC(=O)c2[nH]c3ccc(C)cc3c2-c2ccccc2)c(C(=O)O)c1OC	89	-1	-13

5 entries from above, ordered by their value in DSG3 Ab inh, falling:
entry	Rce1 inh	Tb MetRS inh	canonical_smiles	DSG3 Ab inh	Arrestin-AP2 inh	Yeast UUG start
12	·	0	O=C(CN1C(=O)NC(c2ccccc2)(c2ccccc2)C1=O)Nc1ccc(N2CCOCC2)cc1	124	3	5
16	i	-1	COc1ccc(C2C3=C(CC(c4ccco4)CC3=O)Nc3ccccc3N2C(C)=O)cc1 (stereo not given)	106	-1	-5
15	+	1	COc1cccc(C2CC(=O)C3=C(C2)Nc2ccccc2N(C(=O)CCC(=O)O)C3c2ccc(F)cc2)c1 (stereo not given)	100	9	1
18	i	0	S=c1[nH]nc(-c2ccccn2)n1/N=C/c1ccc(Br)s1	65*	9	·
11	i	-1	COc1ccc(C2(c3ccc(OC)cc3)NC(=O)N(CC(=O)Nc3ccc(N4CCOCC4)cc3)C2=O)cc1	3.0*	16	·

New compounds follow:
entry	Rce1 inh	Tb MetRS inh	canonical_smiles	DSG3 Ab inh	Arrestin-AP2 inh	Yeast UUG start
21	·	·	CN1C(=O)c2cc(NC(=O)c3ccc(F)cc3)ccc2OC[C@H]2O[C@H](CC(=O)O)CC[C@H]21	·	·	4
22	+	-2	COC(=O)C1CCCN1S(=O)(=O)c1ccc2ccccc2c1 (stereo not given)	95	2	-5
23	+	1	CCCCNC(=S)NNC(=O)CCn1cc(C)cn1	103	-5	·
24	i	0	Cc1cnn(CCC(=O)NNC(=S)NCC(C)C)c1	·	1	·
25	·	·	O=C(c1ccccc1F)N1CC[C@H]2[C@H](CO)Nc3ccc(-c4cccc(F)c4)cc3[C@H]21	·	·	-4
26	i	0	CC(=O)NC(C)CCc1ccccc1 (stereo not given)	107	-5	·
27	+	0	CC(CCc1ccccc1)NCC(O)c1ccc(O)c(C(N)=O)c1 (stereo not given)	·	1	1
28	i	0	Cc1ccc(NC(=O)Cn2c(O)c(N=NC(N)=S)c3ccccc32)cc1	90	35	-23
29	i	-1	COc1ccc2c(c1)c(N=NC(N)=S)c(O)n2CC(=O)c1ccccc1	59*	6	-14
30	i	0	CCN(CC)S(=O)(=O)c1ccc(N/N=C/c2cc(OC)c(OC)cc2OC)nc1	63*	9	-9
31	·	·	COc1ccc(C#Cc2ccc([C@H]3[C@@H](CO)N4CCCCN(Cc5ccncc5)C[C@H]34)cc2)cc1	·	·	-7
32	i	0	COc1ccc(Nc2nc(N)c([N+](=O)[O-])c(NCCO)n2)cc1	100	3	-3
33	i	-1	CNc1nc(Nc2ccc(Br)cc2)nc(N)c1[N+](=O)[O-]	51*	6	·

Screening results deposited in PubChem by several laboratories.
